Earlier results on one compound are cited in paper PMC7744439 (European journal of medicinal chemistry, 2020).

For this data set, the system named is total HDACs. The note with it: read-out: Total HDAC (IC50); cited from earlier work.

The structures appear in SMILES notation.

A word on the IC50: it is the concentration at which inhibition is half-maximal. For `CC(/C=C/C(=O)NO)=C\[C@@H](C)C(=O)c1ccc(N(C)C)cc1` [TSA (9), reference compound], the concentration for half-maximal inhibition (IC50) is 4 nM.
